Test results: patent US7060808B1, “Humanized anti-EGF receptor monoclonal antibody” (ImClone Systems Incorporated, priority 1995, dated 2006)

Target: T1, EGFR expressed on the surface of A431 cells (Homo sapiens, UniProt P00533)
T1 construct: A431 cells (10^4 or 10^5 per well) were grown in 96 well microtiter plates overnight; endogenous in cells; host or cells: A431 human epidermoid carcinoma cells
Assay: A431 cell ELISA for the detection of EGFR antigen binding
Conditions: COS cell supernatants

binding to EGFR in the cell ELISA: significant level of binding to EGFR | relative affinity compared with the chimeric C225 antibody: about 65%
B1: H225: reshaped human (CDR-grafted) 225 antibody, first versions of kappa light and heavy chain variable regions (antibody, V domains shown)
VL: EIVLTQSPATLSLSPGERATLSCRASQSIGTNIHWYQQRPGQAPRLLIKYASESISGIPARFSGSGSGTDFTLTISSLEPEDFAVYYCQQNNNWPTTFGGGTKVEIK
VH: EVQLVESGGGLVQPGGSLRLSCAVSGFSLTNYGVHWVRQATGKGLEWLGVIWSGGNTDYNTPFTSRLTISKENAKNSLYLQMNSLRAGDTAVYYCARALTYYDYEFAYWGQGTMVTVSS
